# Patent US8486974B2 (priority 2007, dated 2013)
# Tests used:
# [1] = Hydrolysis in the presence of human intestinal microsomes (HIM), with or without esterase inhibitors; type: in vitro ADME
# Experimental: (§1) Pooled plasma/serum solutions (4 ml) were prepared to the correct strength by dilution of plasma with phosphate buffer pH 7.4 (e.g. for a 10% solution 0.4 ml of plasma/serum was added to 3.6 ml of phosphate buffer pH 7.4). Following equilibration of the plasma/serum sample at 37±0.5° C. 100 μl of a stock solution of test compound in acetonitrile (1×10^−4 M) was added and 250 μl aliquots were removed at specified time intervals. Samples were transferred to 1.5 ml Eppendorf tubes containing 500 μl of a 2% w/v solution of nSO4.7H2O (water:acetonitrile, 1:1). Tubes were vortexed for 2 minutes, then centrifuged at 10,000 rpm for 3 minutes at room temperature. Supernatant was aspirated off and analysed by HPLC. The concentration of test compound and metabolites were determined with reference to calibration curves run on that day in the same concentration range and under the same experimental conditions. In order to mimic conditions during the first passage of the drugs after intestinal absorption selected compounds were incubated in phosphate buffer at 37° C. in the presence of microsomes from human liver (HLM) and intestinal epithelium (HIM). The metabolic fate of the esters under these conditions was also determined by RPHPLC by measuring the concentration of drug and metabolites in the medium as a function of time. The identity of participating enzymes was confirmed by using purified enzyme in the case of plasma (BuChE) and by repeating the hydrolysis experiments in the presence of esterase specific inhibitors—isoOMPA for BuChE and BNPP for carboxylesterase. The BuChE activity of plasma and microsomal samples was determined using the Ellman assay (Ellman et al., 1964).
# (§2) Human blood samples were collected by venipuncture into Li-Heparin Sarstedt Monovette tubes (9 ml). Plasma samples were obtained by centrifugation of blood at 10,000 rpm for five minutes and were frozen in aliquots until required for testing. Pooled human liver microsomes (HLM) were diluted to 5 ml with phosphate buffer pH 7.4 (0.1M) giving a stock solution of 2 mg/ml. Aliquots were frozen until required for testing. Pooled human intestinal microsomes (HIM) were diluted to 5 ml with phosphate buffer pH 7.4 (0.1M) giving a stock solution of 80 μg/ml. Aliquots were frozen until required for testing.
# (§3) This raised the question as to whether this was due to the presence of BChE or to some other enzyme(s) because whereas human blood contains only butyrylcholinesterase the liver and intestinal epithelium also contain carboxylesterases (CE)—mainly CE-1 in the liver and CE-2 in the intestine. The microsomal preparations was therefore pre-incubated with iso-OMPA an established BChE inhibitor prior to addition of the pro-drug so as to allow sufficient time to inhibit any BChE that might have been present in the microsomal preparations. […] The Ellman assay was performed on both microsomal preparations so as to determine what levels of BChE are present, if any.
# (§4) BNPP a know carboxylesterase inhibitor was incubated with HIM and HLM for 10 mins prior to addition of the drug so as to knock out carboxylesterase activity. […] It can be concluded that ISAS is a substrate for CE-1 and CE-2 as well as BuChE. These enzymes belong to the same family but have marked difference in substrate specificity. For example the CE enzymes are inefficient in the hydrolysis of positively charged substrates such as those favoured by BuChE, including choline esters. These enzymes are not normally grouped together.
# [2] = Hydrolysis in the presence of human liver microsomes (HLM), with or without esterase inhibitors; type: in vitro ADME
# Experimental: as §1, §2, §3, §4
# [3] = Hydrolysis and aspirin release in buffered human plasma solution (HPLC)
# [4] = HLM (0.2 mg/ml), conc drug 0.13 mM
# [5] = HLM/BNPP (10.6 μM), conc drug 0.1 mM
# [6] = HLM/iso-OMPA (14.4 μM), conc drug 0.1 mM
# [7] = HIM (80 μg/ml), conc drug 0.1 mM
# [8] = HIM/BNPP (11.6 uM), conc drug 0.11 mM
# [9] = HIM/isoOMPA (14.14 uM), conc drug 0.11 mM
substance,measurement,setting,value
Isosorbide-2-aspirinate-5-(2-nitrooxy-methyl)benzoate [Compound 31],aspirin production,[1]; HIM (80 μg/ml),21.7 µM
same,aspirin produced,"[1]; in HIM, drug about 1×10^−4 M",21.7 µM
Isosorbide-2-aspirinate-5-(4-nitrooxy-methyl) benzoate [Compound 33],aspirin production,[1]; HIM (80 μg/ml),9.7 µM
same,aspirin produced,"[1]; in HIM, drug about 1×10^−4 M",9.97 µM
Isosorbide-2-aspirinate-5-(3-nitrooxy-methyl)benzoate [Compound 32],amounts of aspirin produced,[2]; HLM (0.2 mg/ml),5
same,Aspirin,[2]; [4],5 µM
same,Drug disappearace,[2]; [4],10 min
same,Salicylic acid,[2]; [4],6 µM
same,aspirin produced,"[2]; HLM with iso-OMPA (14.4 μM), drug 1×10^−4 M",1.4 µM
same,amounts of aspirin produced,[2]; HLM/BNPP (10.6 μM),0.3
same,Aspirin,[2]; [5],0.3 µM
same,Drug disappearace: drug left,[2]; [5],13 μM left
same,Salicylic acid,[2]; [5],0.9 µM
same,amounts of aspirin produced,[2]; HLM/iso-OMPA (14.4 μM),1.4
same,Aspirin,[2]; [6],1.4 µM
same,Drug disappearace,[2]; [6],20 min
same,Salicylic acid,[2]; [6],4.5 µM
same,amounts of aspirin produced,[1]; HIM (80 μg/ml),20
same,aspirin production,[1]; HIM (80 μg/ml),20 µM
same,Aspirin,[1]; [7],20 µM
same,Drug disappearace,[1]; [7],10 min
same,Salicylic acid,[1]; [7],4 µM
same,aspirin produced,"[1]; HIM with iso-OMPA (14 μM), drug 1.1×10^−4 M",12.7 µM
same,amounts of aspirin produced,[1]; HIM/BNPP (11.6 uM),0.22
same,Aspirin,[1]; [8],0.22 µM
same,Drug disappearace: drug left,[1]; [8],11 μM left
same,Salicylic acid,[1]; [8],1.3 µM
same,amounts of aspirin produced,[1]; HIM/isoOMPA (14.14 uM),12.7
same,Aspirin,[1]; [9],12.7 µM
same,Drug disappearace,[1]; [9],30 min
same,Salicylic acid,[1]; [9],7.2 µM
same,aspirin produced,"[1]; in HIM, drug about 1×10^−4 M",20 µM
same,amounts of aspirin produced,[3]; 50% HP,21
same,Drug disappearace,"[3]; 50% HP, conc drug 0.25 mM",10 min
same,Aspirin,"[3]; 80% HP, conc drug 0.1 mM",21 µM
same,Drug disappearace,"[3]; 80% HP, conc drug 0.1 mM",10 min
same,aspirin produced,"[3]; 80% human plasma, drug 1×10^−4M",21 µM
